The text below walks through data of patent US20240360179A1, “STAPLED PEPTIDES AND METHODS THEREOF” (FOG PHARMACEUTICALS, INC., priority 2021, published 2024).

Amino acid sequences for entries named in this document (tags omitted).
UniProt P35222, whole entry: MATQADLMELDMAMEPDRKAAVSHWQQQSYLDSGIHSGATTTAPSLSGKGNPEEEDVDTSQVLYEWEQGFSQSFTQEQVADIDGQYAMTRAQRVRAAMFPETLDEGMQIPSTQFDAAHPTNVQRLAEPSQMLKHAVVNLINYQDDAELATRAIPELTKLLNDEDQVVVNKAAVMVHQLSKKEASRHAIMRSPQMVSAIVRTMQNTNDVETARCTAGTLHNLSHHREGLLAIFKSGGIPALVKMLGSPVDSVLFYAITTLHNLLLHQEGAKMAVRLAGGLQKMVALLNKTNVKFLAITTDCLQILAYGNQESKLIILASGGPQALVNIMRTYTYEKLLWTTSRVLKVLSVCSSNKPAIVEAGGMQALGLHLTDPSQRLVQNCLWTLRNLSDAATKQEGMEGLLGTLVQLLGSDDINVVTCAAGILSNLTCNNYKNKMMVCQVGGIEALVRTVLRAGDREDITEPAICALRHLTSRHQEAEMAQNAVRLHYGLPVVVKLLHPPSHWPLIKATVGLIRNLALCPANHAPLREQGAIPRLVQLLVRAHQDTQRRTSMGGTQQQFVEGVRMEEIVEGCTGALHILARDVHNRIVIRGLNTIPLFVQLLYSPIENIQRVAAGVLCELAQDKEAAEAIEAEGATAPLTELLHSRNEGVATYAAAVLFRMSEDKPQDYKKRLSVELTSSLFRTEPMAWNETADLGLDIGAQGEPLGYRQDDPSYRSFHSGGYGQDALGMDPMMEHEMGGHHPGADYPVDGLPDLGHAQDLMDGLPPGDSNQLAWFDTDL

pIC50: −log10 of the molar value.

The experiment has as its target T1, full-length B-Catenin (Uniprot ID P35222) (Homo sapiens, UniProt P35222).
T1 construct: 10 nM full-length B-Catenin (Uniprot ID P35222)
In kind it is binding. Particulars: competition fluorescence polarization; read-out: beta-Catenin FP IC50.
Regarding “Ac-S6-Ala-Asp-Npg-B5-Ala-Asp-3COOHF-Aib-Ala-Phe-[4Abu]DapAc7-Leu-3Thi-BztA-GlnR*3-Ala-NH2 [I-1298]”, the pIC50 was below 6.00.
With “Ac-PL3-Asp-Npg-B5-Asp-3COOHF-[ethylenediamine]GlnR-Ala-Phe-Leu-PyrS2-2F3MeF-BztA-GlnR-NH2 [I-701]”, the negative logarithm of the IC50 (pIC50) was 6.70 to 7.30.
The same measure for “Ac-PL3-Asp-Ile-B5-Asp-3COOHF-Aib-Ala-Phe-Lys*3-PyrS2-DipA-34ClF-GlnR*3-NH2 [I-1534]”: above 7.30; for “Ac-S6-Ala-Asp-DipA-B5-Asp-3COOHF-nLeu-Ala-Phe-Lys*3-PyrS1-Phe-34ClF-GlnR*3-NH2 [I-1691]”: above 7.30.
Under “Ac-PL3-Asp-Leu-B5-Asp-3COOHF-Aib-Ala-Phe-Lys*3-PyrS2-Trp-BztA-GlnR*3-Ala-NH2 [I-1913]” stands 6.70 to 7.30.
Regarding “Ac-PL3-Asp-Npg-B5-Asp-3COOHF-Aib-Ala-Phe-Lys*3-PyrS2-3Thi-BztA-GlnR*3-Ala-Ala-Ala-[Ac]Lys-NH2 [I-1394]”, the pIC50 was above 7.30.
Under “Ac-PL3-Asp-Npg-B5-Asp-3COOHF-Aib-Ala-Phe-TriAzLys*3-PyrS2-Phe-34ClF-sAla*3-Ala-NH2 [I-1093]” stands above 7.30.
The same measure for “Ac-PL3-Asp-DipA-B5-Asp-3COOHF-Phe-Ala-Phe-Lys*3-PyrS2-3Thi-34ClF-GlnR*3-NH2 [I-1114]”: above 7.30; for “Ac-PL3-Asp-Npg-B5-Asp-3COOHF-Aib-Ala-Phe-[IsoE]Cys-PyrS2-3Thi-BztA-aMeC-Ala-NH2 [I-1389]”: 6.70 to 7.30; for “Ac-PL3-Asp-Ile-B5-Asp-3COOHF-Phe-Ala-Phe-TriAzLys*3-PyrS2-Phe-34ClF-sAla*3-Ala-NH2 [I-1097]”: above 7.30.
Under “Ac-Asp-Ala-S5-Ser-Asp-Npg-B5-Asp-3COOHF-Aib-Ala-Phe-Lys*3-PyrS2-3Thi-BztA-GlnR*3-Ala [I-1288]” stands above 7.30.
Take “8QuiSO2-PL3-Asp-Npg-B5-Asp-3COOHF-Aib-Ala-Phe-Lys*3-PyrS2-3Thi-BztA-GlnR*3-Ala-NH2 [I-1085]”: the pIC50 was above 7.30.
The same measure for “Ac-PL3-Asp-Npg-B5-Asp-3COOHF-Aib-Ala-Phe-Lys*3-PyrS2-hPhe-34ClF-GlnR*3-Ala-NH2 [I-1308]”: above 7.30; for “2F2PyAc-PL3-Asp-Npg-B5-Asp-3COOHF-Aib-Ala-Phe-Lys*3-PyrS2-3Thi-BztA-GlnR*3-Ala-NH2 [I-1063]”: above 7.30.
Under “NPyroR3-Asp-Npg-B5-Asp-3COOHF-Aib-Ala-Phe-Lys*3-PyrS2-3Thi-34ClF-GlnR*3-NH2 [I-1548]” stands above 7.30; under “Ac-PL3-Asp-Ile-B5-Asp-3COOHF-Aib-Ala-Phe-Lys*3-PyrS2-Phe-34MeF-GlnR*3-NH2 [I-1105]”, above 7.30.
The same measure for “Ac-PL3-Asp-Npg-B5-Asp-3COOHF-Aib-Ala-Phe-Lys*3-PyrS2-2F3MeF-34ClF-GlnR*3-Phe-NH2 [I-866]”: 6.70 to 7.30; for “Ac-PL3-Asp-DipA-B5-aThr-3COOHF-CyLeu-Ala-Phe-Lys*3-PyrS2-3Thi-34ClF-GlnR*3-NH2 [I-1633]”: 6.70 to 7.30.
“Ac-PL3-Asp-Npg-B5-Asp-3COOHF-Aib-Ala-Phe-Lys*3-PyrS2-hhSer-34ClF-GlnR*3-Ala-NH2 [I-1309]”: the pIC50 was above 7.30.
Under “Ac-PL3-Asp-Npg-B5-Asp-3COOHF-Aib-Ala-Phe-Lys*3-PyrS2-hhLeu-34ClF-GlnR*3-Ala-NH2 [I-1307]” stands above 7.30; under “Ac-PL3-Asp-Cha-B5-Asp-3COOHF-Ala-Ala-Phe-Lys*3-PyrS2-2F3MeF-BztA-GlnR*3-Leu-NH2 [I-107]”, above 7.30; under “Ac-S5-Glu-Glu-Npg-B5-Asp-3COOHF-Aib-Ala-Phe-Lys*3-PyrS2-3Thi-BztA-GlnR*3-Ala-NH2 [I-1210]”, 6.00 to 6.12.
Under “Ac-PL3-Asp-DipA-B5-Asp-3COOHF-Ala-Ala-Phe-Lys*3-PyrS2-3Thi-34ClF-GlnR*3-Ala-NH2 [I-1112]” stands above 7.30; under “Ac-PL3-Asp-Leu-B5-Asp-3COOHF-Gln4Pippip*3-Ala-Phe-Leu-PyrS2-Phe-34ClF-GlnR*3-NH2 [I-1921]”, above 7.30.
